Test results from ChEMBL document CHEMBL4425176, “1,2,3-Triazoles as inhibitors of indoleamine 2,3-dioxygenase 2 (IDO2)” (Bioorg Med Chem Lett, 2016).

Protein sequences, listed by entry. Tags and fused reporters are not part of them.
UniProt P14902, whole entry: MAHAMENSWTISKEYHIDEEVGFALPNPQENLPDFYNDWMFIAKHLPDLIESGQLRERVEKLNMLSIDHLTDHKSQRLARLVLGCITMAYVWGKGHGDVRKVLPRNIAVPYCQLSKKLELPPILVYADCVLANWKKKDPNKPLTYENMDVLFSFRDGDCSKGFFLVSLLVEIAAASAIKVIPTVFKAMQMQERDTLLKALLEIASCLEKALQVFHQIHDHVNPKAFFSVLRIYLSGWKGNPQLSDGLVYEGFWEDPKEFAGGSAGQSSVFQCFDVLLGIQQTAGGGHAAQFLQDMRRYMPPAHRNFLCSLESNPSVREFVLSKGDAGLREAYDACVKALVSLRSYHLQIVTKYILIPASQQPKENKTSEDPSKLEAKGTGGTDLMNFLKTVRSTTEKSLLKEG

Target: Indoleamine 2,3-dioxygenase 1 (Homo sapiens, UniProt P14902)
Experiment: Inhibition of human IDO1 transfected in HEK293T cells assessed as kynurenine formation using L-Trp as substrate after 7 hrs
Type: cell-based

IC50: 0.09 µM
Structure (SMILES): Oc1ccc(Cl)cc1-c1c[nH]nn1
